Data reported in ChEMBL document CHEMBL1129396, “2-amino-4-oxo-5-substituted-pyrrolo[2,3-d]pyrimidines as nonclassical antifolate inhibitors of thymidylate synthase” (J Med Chem, 1996).

The chains behind the UniProt entries cited, without tags or fusion partners.
UniProt C3SWJ7, whole entry: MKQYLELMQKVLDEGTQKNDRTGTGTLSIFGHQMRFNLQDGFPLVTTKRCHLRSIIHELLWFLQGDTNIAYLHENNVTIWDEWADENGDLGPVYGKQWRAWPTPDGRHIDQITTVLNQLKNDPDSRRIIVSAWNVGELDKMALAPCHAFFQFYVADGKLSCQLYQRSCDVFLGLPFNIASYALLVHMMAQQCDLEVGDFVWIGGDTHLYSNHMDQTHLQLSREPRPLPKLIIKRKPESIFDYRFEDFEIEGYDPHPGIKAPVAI

Target: Thymidylate synthase (Escherichia coli, UniProt C3SWJ7)
Assay: The inhibitory concentration of compound was evaluated on Escherichia coli thymidylate synthase

IC50: 5.3 µM
Structure (SMILES): Cc1nc2ccc(CN(C)c3ccc(C(=O)N[C@@H](CCC(=O)O)C(=O)O)s3)cc2c(=O)[nH]1 [RALTITREXED]
